Literature values as cited in patent publication US7381523B2, “Methods for identifying compounds for treating diabetes mellitus” (BioCrine AB, priority 2004, dated 2008).

The chains behind the UniProt entries cited, without tags or fusion partners.
UniProt P35346, whole entry, species assumed: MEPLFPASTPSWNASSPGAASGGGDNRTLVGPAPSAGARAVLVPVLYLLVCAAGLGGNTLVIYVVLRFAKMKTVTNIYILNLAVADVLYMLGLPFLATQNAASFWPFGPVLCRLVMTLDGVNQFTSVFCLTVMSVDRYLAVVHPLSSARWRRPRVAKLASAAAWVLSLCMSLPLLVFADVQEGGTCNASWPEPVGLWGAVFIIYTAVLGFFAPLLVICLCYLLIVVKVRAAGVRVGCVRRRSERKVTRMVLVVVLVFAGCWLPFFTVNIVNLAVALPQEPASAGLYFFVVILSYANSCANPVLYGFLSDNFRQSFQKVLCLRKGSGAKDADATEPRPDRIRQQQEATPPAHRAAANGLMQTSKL

Molecular target: SSTR5 (Homo sapiens, UniProt P35346)
Conditions: previous work

Ser-Ala-Asn-Ser-Asn-Pro-Ala-Met-Ala-Pro-Arg-Glu-Arg-Lys-Ala-Gly-Cys-Lys-Asn-Phe-Phe-Trp-Lys-Thr-Phe-Thr-Ser-Cys [SS-28]
affinity of SSTR5 relative to SSTR1-4: 10 fold
